Measured values reported in patent US20110104713A1, “PRODUCTS AND PROCESSES FOR MODULATING PEPTIDE-PEPTIDE BINDING DOMAIN INTERACTIONS” (published 2011).
Residue numbers refer to the chain shown, from its start. In names and notes the source's numbering stands. Each block holds one binder with its values, some of them ahead of it. Non-standard residues stand in square brackets, D forms with d. No end group written: not given here. pT = C[C@@H](OP(=O)(O)O)[C@H](N)C(=O)O; pS = N[C@@H](COP(=O)(O)O)C(=O)O

Tests used:
Experiment in all cases: isothermal titration calorimetry
[1] = molecular target: T1, PoloBoxtide-8pS (Artificial Sequence)
T1 peptide: MAGPMQS[pS]PLNGAYKK

[2] = molecular target: T2, PoloBoxtide-9N (Artificial Sequence)
T2 peptide: MAGPMQS[pT]NLNGAKK

[3] = molecular target: T3, PoloBoxtide-optimal, MAGPMQ-S-pT-P-LNGAKK (Artificial Sequence)
T3 peptide: MAGPMQS[pT]PLNGAKK

fold drop in affinity against PoloBoxtide-optimal [1]: 7 fold
fold increase in Kd against PoloBoxtide-optimal [2]: > 5 fold
B1: Plk-1 Polo-box domain (PBD), residues 326-603 (other)
chain: SIAPSSLDPSNRKPLTVLNKGLENPLPERPREKEEPVVRETGEVVDCHLSDMLQQLHSVNASKPSERGLVRQEEAEDPACIPIFWVSKWVDYSDKYGLGYQLCDNSVGVLFNDSTRLILYNDGDSLQYIERDGTESYLTVSSHPNSLMKKITLLKYFRNYMSEHLLKAGANITPREGDELARLPYLRTWFRTRSAIILHLSNGSVQINFFQDHTKLILCPLMAAVTYIDEKRDFRTYRLSLLEEYGCCKELASRLRYARTMVDKLLSSRSASNRLKAS

Kd [3]: > 100 µM
B2: mutant Plk1 PBD containing the W414F substitution (other)
chain: B1 chain with W89F
